Assay results published in patent publication US7385026B1, “Modified ghrelin polypeptides” (priority 1999, dated 2008).

Amino acid sequences for entries named in this document (tags omitted).
UniProt O08725, whole entry: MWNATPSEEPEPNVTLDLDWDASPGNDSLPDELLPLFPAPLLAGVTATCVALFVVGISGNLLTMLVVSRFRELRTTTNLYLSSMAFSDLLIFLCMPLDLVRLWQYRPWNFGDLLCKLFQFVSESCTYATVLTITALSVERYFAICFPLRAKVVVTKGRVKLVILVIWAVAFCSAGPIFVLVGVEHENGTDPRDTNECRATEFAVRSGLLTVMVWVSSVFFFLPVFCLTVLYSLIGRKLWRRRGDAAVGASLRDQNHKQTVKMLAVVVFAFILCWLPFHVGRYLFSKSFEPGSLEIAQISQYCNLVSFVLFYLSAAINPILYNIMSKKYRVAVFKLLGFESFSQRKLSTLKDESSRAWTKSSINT

Molecular target: T1, rat GHS-receptor (GHR-R) (Rattus norvegicus, UniProt O08725)
T1 construct: A full-length cDNA for rat GHR-R was obtained by RT-PCR; expressed in transfected cells
Experiment: Ca-releasing activity (increase in intracellular calcium) in CHO-GHSR62 cells, FLIPR
Format: cell-based
Text: To assay an increase in the intracellular calcium ion concentration (Ca-releasing activity) occurring upon binding of a GH secretagogue (GHS) to GHS-receptor (GHR-R), a cell strain expressing rat GHR-R was created in the following manner. A full-length cDNA for rat GHR-R was obtained by RT-PCR (reverse transcriptase-polymerase chain reaction) where a cDNA derived from rat brain was used as template. From the nucleotide sequence of known rat GHR-R [K. K. Mckee, et al, Molecular Endocrinology 11, 415-423 (1997)], sense and antisense primers consisting of the following nucleotide sequences were synthesized.
The amplified cDNA was ligated to vector pcDNAIII (Invitrogen) to construct expression vector GHSR-pcDNAIII. CHO cells were transformed via the expression vector, and the transformed cells stably expressing GHR-R were selected in a medium containing 1 μg/ml G418. […] A change in the intracellular calcium ion concentration (Ca-releasing activity) was measured by an FLIPR system (Molecular Device). […] Then, the cells were incubated with 4 μM fluorescent Fluo4 (Molecular Probe Co., Ltd) for 1 hour and washed four times with Hank's BSS (Hank's Balanced Salt Solution) containing 20 mM Hepes ([N-2-hydroxyethyl]-piperazine-N-[2-ethanesulfonic acid]) and 2.5 mM probenecid, and the Ca-releasing activity was assayed by adding a sample and measuring a change in the fluorescence. […]

GHRP-6 [reference compound]
concentration to which CHO-GHSR62 cells responded: 10^−10 to 10^−9 M
